Test results as given in US20210379067A1 (iOmx Therapeutics AG, priority 2018, published 2021).

Protein sequences, listed by entry. Tags and fused reporters are not part of them. Residues count along the entry.
UniProt Q62371, 22-854: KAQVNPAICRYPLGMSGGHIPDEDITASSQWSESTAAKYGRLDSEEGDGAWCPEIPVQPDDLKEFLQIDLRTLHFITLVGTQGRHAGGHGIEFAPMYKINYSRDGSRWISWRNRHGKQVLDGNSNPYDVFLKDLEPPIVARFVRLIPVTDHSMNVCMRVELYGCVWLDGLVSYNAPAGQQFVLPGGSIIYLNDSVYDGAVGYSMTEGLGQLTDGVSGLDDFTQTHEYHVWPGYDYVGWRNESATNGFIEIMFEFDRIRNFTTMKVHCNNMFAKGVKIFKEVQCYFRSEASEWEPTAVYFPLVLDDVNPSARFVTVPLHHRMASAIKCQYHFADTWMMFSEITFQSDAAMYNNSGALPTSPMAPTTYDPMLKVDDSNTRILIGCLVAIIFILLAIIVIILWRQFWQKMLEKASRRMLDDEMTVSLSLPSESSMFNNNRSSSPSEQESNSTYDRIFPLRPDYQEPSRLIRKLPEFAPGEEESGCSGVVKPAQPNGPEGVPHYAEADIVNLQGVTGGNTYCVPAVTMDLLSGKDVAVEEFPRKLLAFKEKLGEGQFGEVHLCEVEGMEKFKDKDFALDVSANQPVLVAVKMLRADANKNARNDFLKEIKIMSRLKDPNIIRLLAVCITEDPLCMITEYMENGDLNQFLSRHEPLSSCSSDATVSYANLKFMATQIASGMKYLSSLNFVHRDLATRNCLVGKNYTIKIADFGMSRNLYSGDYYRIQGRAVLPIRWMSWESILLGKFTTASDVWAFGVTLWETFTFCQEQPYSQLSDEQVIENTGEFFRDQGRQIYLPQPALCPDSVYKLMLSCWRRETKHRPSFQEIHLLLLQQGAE
UniProt P36888, 27-993: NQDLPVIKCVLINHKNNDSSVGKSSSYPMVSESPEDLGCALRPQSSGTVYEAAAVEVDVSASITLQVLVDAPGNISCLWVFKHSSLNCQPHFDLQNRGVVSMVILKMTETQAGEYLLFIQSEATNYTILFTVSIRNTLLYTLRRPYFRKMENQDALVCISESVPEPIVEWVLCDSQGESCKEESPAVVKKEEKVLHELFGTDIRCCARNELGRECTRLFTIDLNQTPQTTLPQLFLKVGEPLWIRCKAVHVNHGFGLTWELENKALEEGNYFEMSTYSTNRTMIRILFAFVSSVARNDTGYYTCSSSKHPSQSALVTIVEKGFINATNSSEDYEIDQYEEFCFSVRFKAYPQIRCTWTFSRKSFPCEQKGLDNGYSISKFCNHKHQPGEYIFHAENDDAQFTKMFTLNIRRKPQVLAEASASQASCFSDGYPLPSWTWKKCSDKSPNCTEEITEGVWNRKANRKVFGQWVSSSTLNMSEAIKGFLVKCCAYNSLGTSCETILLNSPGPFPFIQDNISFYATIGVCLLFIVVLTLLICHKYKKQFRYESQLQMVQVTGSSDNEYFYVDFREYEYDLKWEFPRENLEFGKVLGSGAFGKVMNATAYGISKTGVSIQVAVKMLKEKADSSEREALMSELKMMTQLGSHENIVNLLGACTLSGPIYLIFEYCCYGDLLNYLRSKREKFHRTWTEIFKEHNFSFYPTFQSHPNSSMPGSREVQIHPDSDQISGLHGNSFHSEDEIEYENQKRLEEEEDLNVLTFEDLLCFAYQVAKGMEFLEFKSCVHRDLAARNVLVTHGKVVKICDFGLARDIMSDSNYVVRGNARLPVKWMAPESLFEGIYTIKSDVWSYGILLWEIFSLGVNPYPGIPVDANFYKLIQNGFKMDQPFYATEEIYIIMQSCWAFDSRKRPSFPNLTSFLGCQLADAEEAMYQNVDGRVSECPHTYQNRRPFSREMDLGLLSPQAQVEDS

Key:
DDR2 = DDR2 (Mus musculus, UniProt Q62371); settings: multiple tumour models; combination; cited from earlier work
FLT3 = biological target: T1, FLT3 (Homo sapiens, UniProt P36888); test: Kinase Profiler single-point (1 uM) inhibition; type: biochemical
T1 construct: purchased ProQinase

EPH-A6 = biological target: T2, EPH-A6 (Homo sapiens, UniProt Q9UF33); test: Kinase Profiler single-point (1 uM) inhibition; type: biochemical
T2 sequence (Q9UF33 23-1036): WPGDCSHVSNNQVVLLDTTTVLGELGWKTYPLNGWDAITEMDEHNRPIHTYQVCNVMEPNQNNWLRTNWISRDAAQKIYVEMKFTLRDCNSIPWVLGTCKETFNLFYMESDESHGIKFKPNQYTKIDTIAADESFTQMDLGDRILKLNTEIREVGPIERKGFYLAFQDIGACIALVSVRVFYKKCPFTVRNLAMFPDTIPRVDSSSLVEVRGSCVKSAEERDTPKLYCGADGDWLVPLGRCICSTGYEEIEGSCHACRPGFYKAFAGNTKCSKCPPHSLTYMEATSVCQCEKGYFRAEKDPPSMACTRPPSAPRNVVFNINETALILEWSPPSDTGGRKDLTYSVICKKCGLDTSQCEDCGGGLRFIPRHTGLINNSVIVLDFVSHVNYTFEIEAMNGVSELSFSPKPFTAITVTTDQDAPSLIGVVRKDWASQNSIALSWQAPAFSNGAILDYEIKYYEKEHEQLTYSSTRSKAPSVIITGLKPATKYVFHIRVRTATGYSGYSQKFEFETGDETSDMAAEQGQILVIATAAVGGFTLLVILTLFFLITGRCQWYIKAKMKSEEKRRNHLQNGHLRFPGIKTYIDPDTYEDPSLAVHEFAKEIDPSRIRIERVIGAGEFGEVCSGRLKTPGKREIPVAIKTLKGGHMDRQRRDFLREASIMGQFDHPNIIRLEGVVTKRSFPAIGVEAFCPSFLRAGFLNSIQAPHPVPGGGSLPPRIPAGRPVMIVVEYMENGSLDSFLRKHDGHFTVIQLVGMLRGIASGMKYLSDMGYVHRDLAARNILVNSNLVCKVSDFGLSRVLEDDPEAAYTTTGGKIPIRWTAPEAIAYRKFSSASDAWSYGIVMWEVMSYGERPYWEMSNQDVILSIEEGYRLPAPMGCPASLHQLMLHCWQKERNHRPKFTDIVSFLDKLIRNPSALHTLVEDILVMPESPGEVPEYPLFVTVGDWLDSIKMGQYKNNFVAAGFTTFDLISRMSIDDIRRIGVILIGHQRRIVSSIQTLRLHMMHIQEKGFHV

| Structure (SMILES) | response to immune checkpoint blockade with PD1 inhibitors (DDR2) | Residual activity (%) at 1 uM (FLT3) | Residual activity (%) at 1 uM (EPH-A6) |
| --- | --- | --- | --- |
| Cc1nc(Nc2ncc(C(=O)Nc3c(C)cccc3Cl)s2)cc(N2CCN(CCO)CC2)n1 [Compound A8, N-(2-chloro-6-methylphenyl)-2-((6-(4-(2-hydroxyethyl)piperazin-1-yl)-2-methylpyrimidin-4-yl)amino)thiazole-5-carboxamide] | significantly enhanced response | – | – |
| Cc1nc(Nc2ncc(C(=O)Nc3c(Cl)ccnc3C)s2)cc(N2CCN(CCO)CC2)n1 [Compound B3, N-(4-chloro-2-methylpyridin-3-yl)-2-((6-(4-(2-hydroxyethyl)piperazin-1-yl)-2-methylpyrimidin-4-yl)amino)thiazole-5-carboxamide] | – | 32% | 86% |
